{"source": "patent US10363306B2", "about": "“Cytokines and neuroantigens for treatment of immune disorders” (East Carolina University, priority 2009, dated 2019)", "origin": "cited, not measured here", "system": "multiple sclerosis", "settings": "multiple sclerosis patients, clinical benefit; cited from earlier work", "data": [{"molecule": "Interferon-beta: Interferon-beta used as mainstream therapy for multiple sclerosis (protein, UniProt P01574 22-187, looked up) Interferon beta: MSYNLLGFLQRSSNFQCQKLLWQLNGRLEYCLKDRMNFDIPEEIKQLQQFQKEDAALTIYEMLQNIFAIFRQDSSSTGWNETIVENLLANVYHQINHLKTVLEEKLEKEDFTRGKLMSSLHLKRYYGRILHYLKAKEYSHCAWTIVRVEILRNFYFINRLTGYLRN", "values": [{"measurement": "reduction in the attack rate", "value": "~30", "unit": "%"}]}]}
